# Experimental data reported in patent US6271233A, “Method for treating ocular neovascular diseases” (priority 1999, dated 2001).
# Tested on: retinal vessels
# Conditions: 50 mg/kg/day, adult mice; FIGS. 6, 7
smiles,measurement,value
Clc1ccc(Nc2nnc(Cc3ccncc3)c3ccccc23)cc1 [CGP 79787D],total area of endothelial staining in the retina or appearance of retinal vessels versus vehicle,no difference
